The text below walks through data of patent publication US20180362558A1, “AQUEOUS CURABLE COMPOSITION AND WATER-SOLUBLE PHOTOPOLYMERIZATION INITIATOR” (FUJIFILM CORPORATION, priority 2016, published 2018).

The nature of this series: Solubility in water. The class given is physicochemical. The protocol: Herein, the compound having “water solubility” in the present disclosure is a compound that is soluble in water at 25° C. in an amount of 0.5 mass % or more.

The compound `CC(C)(O)C(=O)c1ccc(OCCO)cc1` [IRGACURE 2959] came in with a solubility in water of 2 mass %.
